Laboratory results published in ChEMBL document CHEMBL2203114, “The Discovery of MK-4256, a Potent SSTR3 Antagonist as a Potential Treatment of Type 2 Diabetes” (ACS Med Chem Lett, 2012).

The chains behind the UniProt entries cited, without tags or fusion partners. Where a name states a change or a piece, a line headed by the entry shows the natural chain unless it says otherwise.
UniProt P31391: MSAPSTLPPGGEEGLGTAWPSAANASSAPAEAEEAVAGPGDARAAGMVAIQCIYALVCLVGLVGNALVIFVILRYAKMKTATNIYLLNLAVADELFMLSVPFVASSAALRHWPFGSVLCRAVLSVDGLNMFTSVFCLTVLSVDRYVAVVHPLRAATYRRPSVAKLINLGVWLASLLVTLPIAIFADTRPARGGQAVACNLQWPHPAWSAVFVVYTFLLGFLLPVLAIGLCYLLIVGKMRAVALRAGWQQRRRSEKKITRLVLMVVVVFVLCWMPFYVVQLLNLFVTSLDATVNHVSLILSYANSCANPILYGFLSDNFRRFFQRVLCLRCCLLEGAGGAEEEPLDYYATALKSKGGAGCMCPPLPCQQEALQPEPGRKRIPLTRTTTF

Biological target: Somatostatin receptor type 4 (Homo sapiens, UniProt P31391)
Format: cell-based, CHO

Compound `Cc1nc([C@]2(c3cnn(C)c3)N[C@@H](c3nc(-c4ccc(F)cc4)c[nH]3)Cc3c2[nH]c2ccccc32)no1` has an IC50 of 384 nM.
